Reference: patent US12186320B2, “Therapeutic agent containing pyrazolo[3,4-d]pyrimidine compound as active ingredient” (TAIHO PHARMACEUTICAL CO., LTD., priority 2018, dated 2025)

Assay: Body weight change in NCI-N87 tumor recurrence model (Test Example 1)
Assay type: in vivo, nude mice (BALB/cAJcl-nu/nu)
Details: body weight change on Day 43 versus Day 0 of Step 1; Compound 1 60 mg/kg/day p.o.; trastuzumab emtansine 10 mg/kg/day i.v.
Protocol: Furthermore, an electronic balance for animals was used to measure the weights. The rate of change in the weight on Day n (BWCn) was calculated from the weight on Day n (BWn) according to the following equation. Rate of change in weight BWCn (%)=(BWn−BW0)/BW0×100
Eighteen nude mice confirmed with tumor recurrence in Step 1 were selected, and 9 animals were assigned to each group by equal distribution (MiSTAT (ver.2.0)) as follows such that the mean TV of each group was uniform (Day 1, i.e., Day 85 as counted from Step 1). Compound 1 was prepared to 6 mg/mL with a 0.1N HCl solution, and the resultant was orally administered once a day on Days 1-42 consecutively. Trastuzumab emtansine (Kadcyla, Roche) was prepared to 1 mg/mL with Otsuka normal saline, and the resultant was administered into the tail vein of each animal once a day on Days 1 and 22. The tumor diameters and weights were measured with time to calculate TV and BWC.

Substance: Trastuzumab emtansine
- BWC(%) on Day43 Mean: 21.89%
